Data on one molecule can be found in patent US10071998B2, “Iminothiadiazine dioxides bearing an amine-linked substituent as BACE inhibitors, compositions, and their use” (Merck Sharp & Dohme Corp., priority 2015, dated 2018).

Sequences of proteins named here, by UniProt entry; tags and fusion partners are left off. Residues count along the entry.
UniProt P56817, 75-416 limits assumed: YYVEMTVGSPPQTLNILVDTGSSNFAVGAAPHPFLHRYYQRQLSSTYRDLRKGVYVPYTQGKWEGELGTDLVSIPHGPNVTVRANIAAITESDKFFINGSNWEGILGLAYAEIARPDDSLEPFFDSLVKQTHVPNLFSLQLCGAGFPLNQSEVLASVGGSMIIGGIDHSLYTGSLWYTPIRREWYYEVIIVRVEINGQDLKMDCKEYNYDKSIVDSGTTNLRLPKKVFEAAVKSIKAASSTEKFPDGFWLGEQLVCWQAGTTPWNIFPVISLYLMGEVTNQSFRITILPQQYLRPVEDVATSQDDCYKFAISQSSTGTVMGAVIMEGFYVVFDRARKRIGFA
UniProt Q9Y5Z0, 63-473 limits assumed: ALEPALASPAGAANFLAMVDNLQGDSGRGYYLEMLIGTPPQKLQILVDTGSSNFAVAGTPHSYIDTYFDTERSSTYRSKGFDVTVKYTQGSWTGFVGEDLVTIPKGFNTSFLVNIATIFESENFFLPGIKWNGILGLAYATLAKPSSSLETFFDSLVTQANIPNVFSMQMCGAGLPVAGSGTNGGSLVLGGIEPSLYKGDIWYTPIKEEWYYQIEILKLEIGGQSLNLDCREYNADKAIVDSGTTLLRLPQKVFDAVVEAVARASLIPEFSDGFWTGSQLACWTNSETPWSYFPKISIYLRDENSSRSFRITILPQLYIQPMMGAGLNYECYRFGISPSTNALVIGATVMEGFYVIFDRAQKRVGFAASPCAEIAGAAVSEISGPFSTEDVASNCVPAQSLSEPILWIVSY

Assay [1] has as its target Recombinant human soluble BACE-1 catalytic domain (Homo sapiens (Human), UniProt P56817). Nature of the assay: BACE-1 Ki Assay (BACE-1 HTRF FRET Assay). The following applies: read-out: BACE1 Ki; Table 1; Ki calculated from IC50 with Cheng-Prusoff equation. As to the method:
Assay 1: BACE-1 Ki Assay (BACE-1 HTRF FRET Assay)
The compounds of the invention were assessed for their ability to inhibit BACE-1 using the following assay.
The following reagents were used in this assay. Na^+-Acetate pH 5.0; 1% Brij-35; Glycerol; Dimethyl Sulfoxide (DMSO); Recombinant human soluble BACE-1 catalytic domain (>95% pure); APP Swedish mutant peptide substrate (QSY7-APP^swe-Eu): QSY7-EISEVNLDAEFC-Europium-amide.
A homogeneous time-resolved FRET assay can be used to determine IC50 values for inhibitors of the soluble human BACE-1 catalytic domain. This assay monitors the increase of 620 nm fluorescence that resulted from BACE-1 cleavage of an APPswedish APP^swe mutant peptide FRET substrate (QSY7-EISEVNLDAEFC-Europium-amide). […] In the absence of enzyme activity, 620 nm fluorescence is low in the assay and increased linearly over 3 hours in the presence of uninhibited BACE-1 enzyme. Inhibition of BACE-1 cleavage of the QSY7-APP^swe-Eu substrate by inhibitors is manifested as a suppression of 620 nm fluorescence.
Varying concentrations of inhibitors at 3× the final desired concentration in a volume of 10 ul are preincubated with purified human BACE-1 catalytic domain (3 nM in 10 μl) for 30 minutes at 30° C. in reaction buffer containing 20 mM Na-Acetate pH 5.0, 10% glycerol, 0.1% Brij-35 and 7.5% DSMO. […] The example compounds of the invention were measured in this assay.

In assay [2] the target is purified human autoBACE-2 (Homo sapiens (Human), UniProt Q9Y5Z0). Nature of the assay: BACE-2 Assay (BACE-HTRF assay). The following applies: read-out: BACE2 Ki; Table 1; Ki calculated from IC50 with Cheng-Prusoff equation. As to the method:
Inhibitor IC50s, at purified human autoBACE-2 are determined in a time-resolved endpoint proteolysis assay that measures hydrolysis of the QSY7-EISEVNLDAEFC-Eu-amide FRET peptide substrate (BACE-HTRF assay). BACE-mediated hydrolysis of this peptide results in an increase in relative fluorescence (RFU) at 620 nm after excitation with 320 nm light. Inhibitor compounds, prepared at 3× the desired final concentration in 1× BACE assay buffer (20 mM sodium acetate pH 5.0, 10% glycerol, 0.1% Brij-35) supplemented with 7.5% DMSO are pre-incubated with an equal volume of autoBACE-2 enzyme diluted in 1×BACE assay buffer (final enzyme concentration 1 nM) in black 384-well NUNC plates for 30 minutes at 30° C. […] Following laser excitation of sample wells at 320 nm, the fluorescence signal at 620 nm is collected for 400 ms following a 50 μs delay on a RUBYstar HTRF plate reader (BMG Labtechnologies). […] IC50 values are determined by nonlinear regression analysis (sigmoidal dose response, variable slope) of percent inhibition data with minimum and maximum values set to 0 and 100 percent respectively. […] The Ki values are calculated from the IC50 using the Cheng-Prusoff equation.

A word on the Ki: it is a measure of affinity in units of concentration, obtained from inhibition or displacement. Take `COc1cnc2c(Nc3cc([C@]4(C)CS(=O)(=O)N(C)C(=N)N4)c(F)cn3)nccc2n1`: the Ki in assay [1] was 19.3 nM; in assay [2], 6.9 nM.
